Columns and labels:
[1] = Inhibition of CK2alpha (unknown origin)
[2] = target: Casein kinase I isoform delta (Homo sapiens, UniProt P48730); assay: Inhibition of human CK1delta in presence of [gamma33P]-ATP

Sequences of proteins named here, by UniProt entry; tags and fusion partners are left off. A change or cut given only in a name is not applied to a line headed by its entry.
UniProt P48730: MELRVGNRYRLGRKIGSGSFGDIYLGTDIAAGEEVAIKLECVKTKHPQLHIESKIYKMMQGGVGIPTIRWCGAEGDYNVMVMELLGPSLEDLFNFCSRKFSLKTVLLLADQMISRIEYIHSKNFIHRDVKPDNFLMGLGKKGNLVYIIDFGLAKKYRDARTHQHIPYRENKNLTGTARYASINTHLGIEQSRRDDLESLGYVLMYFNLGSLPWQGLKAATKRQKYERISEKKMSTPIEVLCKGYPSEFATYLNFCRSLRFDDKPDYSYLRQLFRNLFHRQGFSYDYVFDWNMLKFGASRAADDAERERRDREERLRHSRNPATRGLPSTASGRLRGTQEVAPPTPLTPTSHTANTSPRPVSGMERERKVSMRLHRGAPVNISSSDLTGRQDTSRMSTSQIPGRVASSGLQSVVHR

SMILES | Ki [1] | IC50 [2]
O=c1cc(-c2ccc(O)cc2)oc2cc(O)cc(O)c12 [APIGENIN] | 740 nM | –
CN1Cc2nccc(-c3cn(C)nc3-c3ccc(F)cc3)c2C1=O | – | 13 nM

From ChEMBL document CHEMBL4334470, “Small molecule modulators targeting protein kinase CK1 and CK2” (Eur J Med Chem, 2019)
